Measurements taken from PubChem BioAssay AID861 (The Scripps Research Institute Molecular Screening Center, 2007).
The entries are a selection whose mix differs from that of the whole data set. Activity calls are given as the source filed them. No stated cut-off is given here; in the data, active means inhibition above about 25%; inactive means the rest.

By UniProt entry, the sequences of proteins in these tests, tags left out.
UniProt O00206, whole entry: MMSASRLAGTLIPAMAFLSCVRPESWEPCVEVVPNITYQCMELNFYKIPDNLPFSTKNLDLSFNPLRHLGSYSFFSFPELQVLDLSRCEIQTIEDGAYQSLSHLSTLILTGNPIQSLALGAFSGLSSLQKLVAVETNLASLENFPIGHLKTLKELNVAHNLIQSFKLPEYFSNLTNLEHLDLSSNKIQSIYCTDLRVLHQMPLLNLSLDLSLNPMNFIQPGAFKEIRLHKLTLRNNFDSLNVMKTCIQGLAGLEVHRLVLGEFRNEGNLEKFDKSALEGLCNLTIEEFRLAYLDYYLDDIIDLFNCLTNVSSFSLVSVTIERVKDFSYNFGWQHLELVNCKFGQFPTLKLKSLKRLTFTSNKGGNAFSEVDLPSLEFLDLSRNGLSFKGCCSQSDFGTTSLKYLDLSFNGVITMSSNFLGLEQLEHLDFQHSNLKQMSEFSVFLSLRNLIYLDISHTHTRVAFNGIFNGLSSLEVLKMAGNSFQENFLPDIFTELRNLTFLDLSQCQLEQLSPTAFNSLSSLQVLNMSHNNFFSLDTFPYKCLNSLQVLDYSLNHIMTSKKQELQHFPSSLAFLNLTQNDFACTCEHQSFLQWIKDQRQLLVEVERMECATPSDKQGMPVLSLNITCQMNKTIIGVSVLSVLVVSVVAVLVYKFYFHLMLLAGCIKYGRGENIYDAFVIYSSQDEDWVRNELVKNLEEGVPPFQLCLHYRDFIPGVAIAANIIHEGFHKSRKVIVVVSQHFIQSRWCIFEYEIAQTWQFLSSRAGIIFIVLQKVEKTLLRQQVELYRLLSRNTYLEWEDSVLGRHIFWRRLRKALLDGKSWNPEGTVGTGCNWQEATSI

The molecules below were run against Toll-like receptor 4 (Homo sapiens) + Myeloid differentiation primary response protein MyD88 (Homo sapiens) (UniProt O00206+Q99836) (assay: inhibitors of TLR4-MyD88 association in cells, primary screen, cell-based, HeLa CL3-4, BLA complementation, FRET ratio (AID 861;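 further: 0% = vehicle and 100% = reference inhibitor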)). Details: HeLa CL3-4 TLR4/MyD88 BLA complementation, at 8.4 µM, hits give high values.

SMILES	inhibition
CCc1ccc(OP(C)(=O)O)cc1	inactive: -5.16%
